Experimental data: patent publication US20250360143A1, “COMPOSITIONS AND METHODS FOR PHARMACOLOGIC TREATMENT OF STROKE AND MYOCARDIAL ISCHEMIA REPERFUSION INJURY” (priority 2022, published 2025)

Experiments:
[1] = target: T1, hP2X3R (Homo sapiens, UniProt P56373); test: cell-based; conditions: CHO-K1, read-out: hP2X3R % inhib.
T1 construct: expressed in transfected cells; host or cells: CHO-K1
T1 sequence (P56373 1-397): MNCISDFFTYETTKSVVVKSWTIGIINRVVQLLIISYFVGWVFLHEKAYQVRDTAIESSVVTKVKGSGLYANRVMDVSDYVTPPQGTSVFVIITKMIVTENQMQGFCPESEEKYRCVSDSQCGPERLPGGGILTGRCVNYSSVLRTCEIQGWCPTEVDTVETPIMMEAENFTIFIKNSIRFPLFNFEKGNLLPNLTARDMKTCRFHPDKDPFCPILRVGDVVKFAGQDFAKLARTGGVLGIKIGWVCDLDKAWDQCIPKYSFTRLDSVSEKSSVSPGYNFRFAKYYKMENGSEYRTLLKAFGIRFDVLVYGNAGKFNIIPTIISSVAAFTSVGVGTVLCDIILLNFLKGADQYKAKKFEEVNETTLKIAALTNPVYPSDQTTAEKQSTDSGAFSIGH

[2] = target: T2, hP2X1R (Homo sapiens, UniProt P51575); test: cell-based; conditions: CHO-K1, read-out: hP2X1R % inhib.
T2 construct: expressed in transfected cells; host or cells: CHO-K1
T2 sequence (P51575 1-399): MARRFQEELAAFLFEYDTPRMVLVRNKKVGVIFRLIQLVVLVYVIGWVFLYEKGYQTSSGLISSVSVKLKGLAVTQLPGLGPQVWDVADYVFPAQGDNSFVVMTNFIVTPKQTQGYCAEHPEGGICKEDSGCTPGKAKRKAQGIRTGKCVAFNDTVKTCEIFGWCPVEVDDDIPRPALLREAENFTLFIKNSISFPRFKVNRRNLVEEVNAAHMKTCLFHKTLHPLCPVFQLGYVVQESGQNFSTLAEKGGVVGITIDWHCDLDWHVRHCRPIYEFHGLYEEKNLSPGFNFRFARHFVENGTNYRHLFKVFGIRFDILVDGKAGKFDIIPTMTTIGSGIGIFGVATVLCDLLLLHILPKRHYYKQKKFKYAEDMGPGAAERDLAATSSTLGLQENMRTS

[3] = tested on: middle-aged mice after MCAo; conditions: four weeks after MCAo
[4] = target: T3, hP2X2/3R (Homo sapiens, UniProt P56373+Q9UBL9); test: cell-based; conditions: CHO-K1, read-out: hP2X2/3R % inhib.
T3 construct: expressed in transfected cells; host or cells: CHO-K1
T3 sequence (Q9UBL9 1-471): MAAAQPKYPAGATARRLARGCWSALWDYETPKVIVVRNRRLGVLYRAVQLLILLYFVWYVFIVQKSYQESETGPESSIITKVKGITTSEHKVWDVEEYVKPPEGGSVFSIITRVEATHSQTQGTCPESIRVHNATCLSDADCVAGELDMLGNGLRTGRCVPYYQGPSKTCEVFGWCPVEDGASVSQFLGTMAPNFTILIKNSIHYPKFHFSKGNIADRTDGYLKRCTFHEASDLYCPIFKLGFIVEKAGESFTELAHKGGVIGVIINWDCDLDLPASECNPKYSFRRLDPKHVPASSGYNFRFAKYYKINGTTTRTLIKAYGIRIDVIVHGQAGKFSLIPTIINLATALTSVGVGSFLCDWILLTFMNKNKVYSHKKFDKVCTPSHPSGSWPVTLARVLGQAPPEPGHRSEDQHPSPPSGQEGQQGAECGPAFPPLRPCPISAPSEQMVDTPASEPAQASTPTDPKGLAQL
T3 sequence (P56373 1-397): T1 sequence (P56373 1-397)

[5] = target: T4, hP2X4R (Homo sapiens, UniProt Q99571); assay type: cell-based; conditions: for hP2X4R inhibitory activity relative to 22a, in words: SAR comparison with reference antagonist 22a; for IC50: agonist CTP 10 μM (~EC80)
T4 construct: expressed in transfected cells; host or cells: HEK-293
T4 sequence (Q99571 1-388): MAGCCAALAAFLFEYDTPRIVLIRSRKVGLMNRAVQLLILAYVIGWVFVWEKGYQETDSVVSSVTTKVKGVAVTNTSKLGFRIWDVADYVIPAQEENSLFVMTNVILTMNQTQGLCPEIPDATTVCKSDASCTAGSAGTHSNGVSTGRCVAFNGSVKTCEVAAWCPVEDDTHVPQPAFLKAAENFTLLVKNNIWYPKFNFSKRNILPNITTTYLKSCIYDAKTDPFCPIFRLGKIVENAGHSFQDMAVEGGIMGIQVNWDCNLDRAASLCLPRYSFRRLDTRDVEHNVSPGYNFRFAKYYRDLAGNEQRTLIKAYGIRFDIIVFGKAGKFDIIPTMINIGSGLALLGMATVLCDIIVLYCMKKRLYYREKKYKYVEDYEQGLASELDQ

SMILES | inhibition at 30 µM [1] [%] | inhibition at 30 µM [2] [%] | learning and memory function after stroke, NORT, across doses [3] | inhibition at 30 µM [4] [%] | hP2X4R inhibitory activity relative to 22a, in words [5] | IC50 [5] [µM] | selectivity for P2X4R versus hP2X1R, hP2X2/3R and hP2X3R ([5]; in words) | decrease of hP2X4R inhibitory activity relative to 22a ([5]; vs known antagonist 22a) [fold]
O=C1CC(=O)N(c2ccnc(-c3noc(=S)[nH]3)c2)c2ccc3ccccc3c2N1 [Compound 21u, 5-(2-(5-Thioxo-4,5-dihydro-1,2,4-oxadiazol-3-yl)pyridin-4-yl)-1,5-dihydro-2H-naphtho[1,2-b][1,4]diazepine-2,4(3H)-dione triethylamine salt] | 11 | 15 | dose dependent improvement | 0 |  |  |  | 
Cc1ccc2c3c(ccc2c1)N(c1cccc(-c2noc(=S)[nH]2)c1)C(=O)CC(=O)N3 [Compound 22c] | 6 | -4 |  | 11 | did not lower the inhibitory activity | 1.38 | selective | 
O=C1CC(=O)N(c2cccc(-c3noc(=S)[nH]3)c2)c2cc(Br)c3ccccc3c2N1 [Compound 21d, 7-Bromo-5-(3-(5-thioxo-4,5-dihydro-1,2,4-oxadiazol-3-yl)phenyl)-1,5-dihydro-2H-naphtho[1,2-b][1,4]diazepine-2,4(3H)-dione triethylamine salt] | 7 | 5 |  | 11 | only moderately reduced activity | 9.51 |  | 
Cc1ccc2ccc3c(c2c1)NC(=O)CC(=O)N3c1cccc(-c2noc(=S)[nH]2)c1 [Compound 22b] | 13 | 6 |  | 9 |  | 17.9 |  | 13

Where a name gives a salt, the structure may show the parent alone.
